Reference: US9018383B2, “Acylamino-substituted cyclic carboxylic acid derivatives and their use as pharmaceuticals” (Sanofi, priority 2009, dated 2015)
pIC50: −log10 of the molar value.

Protein sequences, listed by entry. Tags and fused reporters are not part of them.
UniProt Q92633, whole entry: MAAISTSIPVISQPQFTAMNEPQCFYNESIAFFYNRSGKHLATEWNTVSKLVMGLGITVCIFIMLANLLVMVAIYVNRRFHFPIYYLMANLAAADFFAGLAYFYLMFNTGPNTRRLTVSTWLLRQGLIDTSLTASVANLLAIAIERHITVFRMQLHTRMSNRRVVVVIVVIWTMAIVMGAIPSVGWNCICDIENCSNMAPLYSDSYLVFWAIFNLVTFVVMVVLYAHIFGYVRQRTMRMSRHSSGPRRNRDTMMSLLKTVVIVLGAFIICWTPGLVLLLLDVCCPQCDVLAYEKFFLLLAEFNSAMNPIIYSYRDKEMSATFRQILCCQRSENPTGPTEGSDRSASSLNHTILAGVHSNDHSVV

The compounds below were run against human Edg-2 receptor (Homo sapiens, UniProt Q92633) (assay: Determination of Edg-2 receptor inhibition by FLIPR measurements (LPA-mediated calcium liberation)). Conditions: read-out: Inhibitory concentrations IC50 for inhibition of the Edg-2 receptor; CHO cells overexpressing human Edg-2 receptor, LPA 100 nM, fluo-4 calcium fluorescence.
Protocol: A) Determination of Edg-2 Receptor Inhibition by Fluorescence Imaging Plate Reader (FLIPR) Measurements
The inhibition of the Edg-2 receptor (LPA1 receptor) by the compounds of the invention was quantified by the inhibitory effect on the LPA-mediated calcium liberation in a cell-based calcium fluorescence assay by use of Chinese hamster ovarian (CHO) cells in which the human Edg-2 receptor was stably overexpressed (Flp-In system, Invitrogen). […] Changes in intracellular calcium were determined by fluorescence measurement with the calcium-sensitive dye fluo-4 (Invitrogen) in a fluorescence imaging plate reader (FLIPR, […]).
CHO cells stably overexpressing the human Edg-2 receptor were seeded (40.000 per well) in black clear-bottomed poly-D-lysine-coated 96 well plates (Becton Dickinson, Biocoat cellware) approximately 18-24 h prior to the experiments. Cells were grown in an incubator at 37° C., 5% carbon dioxide and 95% humidity in cell culture media based on F-12 glutamax media (Gibco, #31765) supplemented with 1% (vol/vol) penicilline/streptomycine (PAN, #P06-07100), 10% (vol/vol) fetal calf serum (FCS, PAA, #A15-151) and hygromycin B (Invitrogen, #10687-010) 300 mg/l (final concentrations).
Prior to the FLIPR experiment, cells were loaded with fluo-4 acetoxymethyl ester (fluo-4 AM, Invitrogen, #F14202) for 60 min in an incubator at 37° C., 5% carbon dioxide and 95% humidity in dye-loading buffer consisting of Hanks' Balanced Salt Solution (HBSS, Invitrogen, #14065049) supplemented with fluo-4 AM at 2 μM (all data given for final concentration), Pluronic® F-127 0.05% (vol/vol) (Invitrogen, #P-3000 MP), HEPES 20 mM (Gibco, #15630), probenecid 2.5 mM (Sigma, #P-8761) and bovine serum albumin 0.05% (BSA, Sigma, #A-6003), adjusted to pH 7.5 with sodium hydroxide. During cell loading, fluo-4 AM is cleaved by intracellular esterase resulting in trapping of the dye fluo-4 within the cells. Loading was terminated by washing of the cells in a cell washer (Tecan Power washer) three times with the buffer specified afore but without fluo-4 AM and BSA. This latter buffer was also used as the buffer in the subsequent cell fluorescence measurements.
The dye-loaded and washed cells were pre-incubated for approximately 5 min with various concentrations of the test compound added as a solution in DMSO (0.3% vol/vol maximum final concentration of DMSO), or with DMSO in the respective concentration only (positive control). Subsequent addition of LPA (18:1, 1-oleoyl-sn-glycerol 3-phosphate; 100 nM final concentration) leads to liberation of intracellular calcium from internal stores resulting in a large transient increase of the fluo-4 fluorescence signal which was monitored over approximately 3 min. The percent inhibition caused by the test compound was determined from the maximum fluorescence response after LPA addition to cells pre-incubated with the compound as compared to the maximum fluorescence response after LPA addition to cells pre-incubated with DMSO only. All fluorescence values were corrected for the baseline fluorescence values obtained with cells which were pre-incubated with DMSO only and were not treated with LPA (baseline control). All measurements were performed in triplicate. From the percent inhibitions the inhibitory concentration IC50 was determined.

Compound	pIC50
COc1ccc(C(=O)NC2(C(=O)O)CCCCCC2)cc1-c1cccc(Cl)c1	6.00 to 7.00
CCC1CCC(NC(=O)c2ccc(OCCO)c(-c3cc(F)cc(F)c3)c2)(C(=O)O)CC1 (stereo not drawn)	> 7.00
CC[C@H]1CC[C@@](NC(=O)c2cnc(OC)c(-c3ccc(OC)c(Cl)c3)c2)(C(=O)O)CC1	> 7.00
COc1ccc(C(=O)NC2(C(=O)O)CCC(C)CC2)cc1OCCc1cccc(C)c1 (stereo not drawn)	> 7.00
CCC1CCC(NC(=O)c2ccc(OCCO)c(-c3ccc(OC)c(Cl)c3)c2)(C(=O)O)CC1 (stereo not drawn)	> 7.00

More lines, now with the values ahead:

pIC50	Compound
> 7.00	CCC1CCC(NC(=O)c2ccc(OCCO)c(-c3cccc(C(F)(F)F)c3)c2)(C(=O)O)CC1 (stereo not drawn)
> 7.00	CCC1CCC(NC(=O)c2ccc(OCCO)c(-c3cccc(OC(F)(F)F)c3)c2)(C(=O)O)CC1 (stereo not drawn)
> 7.00	CCC1CCC(NC(=O)c2ccc(OCCO)c(-c3ccc(F)c(F)c3)c2)(C(=O)O)CC1 (stereo not drawn)
> 7.00	CC[C@H]1CC[C@](NC(=O)c2cc(F)c(OCCO)c(-c3cccc(C(F)(F)F)c3)c2)(C(=O)O)CC1
